We go through one substance from patent US20080242557A1, “System For Detecting Molecular Interactions” (CGK CO., LTD., priority 2004, published 2008).

This test has as its system IκBα phosphorylation (IKK). As to the kind of experiment: Detection of IκBα phosphorylation: translocation of IκBα-mRFP with anti-phospho-IκBα (Ser32)-MNPs in HeLa cells. Type of test: cell-based. The following applies: HeLa cells treated with various chemical compounds and growth factors.

Turning to “IL-2: one of the chemical compounds and growth factors tested as interaction activator”, the “translocation of the IκBα-mRFP fusion protein under the magnetic field (interaction activator screening)” value is “observed to translocate the IκBα-mRFP fusion protein”.
